The values that follow come from paper PMC9023740, “Mucin-Type O-Glycosylation Proximal to β-Secretase Cleavage Site Affects APP Processing and Aggregation Fate” (Frontiers in Chemistry, 2022).

By UniProt entry, the sequences of proteins in these tests, tags left out. Residues count along the entry.
UniProt P05067, 672-711 limits assumed: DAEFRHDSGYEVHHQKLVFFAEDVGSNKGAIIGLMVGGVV
UniProt P56817, 46-457 limits assumed: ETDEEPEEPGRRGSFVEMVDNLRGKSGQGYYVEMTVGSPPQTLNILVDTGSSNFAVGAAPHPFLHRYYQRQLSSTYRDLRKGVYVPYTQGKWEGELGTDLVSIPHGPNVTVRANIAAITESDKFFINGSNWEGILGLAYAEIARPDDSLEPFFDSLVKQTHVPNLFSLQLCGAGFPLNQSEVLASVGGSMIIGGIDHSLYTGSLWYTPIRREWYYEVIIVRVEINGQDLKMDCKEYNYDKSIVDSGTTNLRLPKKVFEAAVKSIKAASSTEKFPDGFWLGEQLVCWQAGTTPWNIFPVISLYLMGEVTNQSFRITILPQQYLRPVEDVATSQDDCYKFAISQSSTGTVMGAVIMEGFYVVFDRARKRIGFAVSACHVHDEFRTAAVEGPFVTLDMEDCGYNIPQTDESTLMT

“And” between values parts separate entries of the source, which are not always exact repeats. Equal entries are not always repeated.

Data set [1] has as its target T1, Aβ40 (Homo sapiens, UniProt P05067).
T1 construct: Aβ40 peptide was synthesized on a PS3 solid phase peptide synthesizer; made in house; host or cells: chemical solid-phase peptide synthesis (Fmoc), no expression host
Briefly: ThT aggregation kinetics assay of Aβ40 with APP (glyco)peptides. The conditions noted are these: for Δt50 (APP (glyco)peptide t50 - Aβ40 t50): Aβ40 10 µM, 50 mM phosphate buffer pH 7.4, 20 µM ThT, 37°C, means of triplicate kinetics. The procedure: Aβ40 peptide was synthesized on a PS3 solid phase peptide synthesizer (Protein Technologies Inc., Woburn, MA) using the standard Fmoc strategy. The resulting crude peptide was purified by reversed-phase high-performance liquid chromatography (RP-HPLC) using a C18 column and characterized by matrix-assisted laser desorption ionization (MALDI) mass spectrometry. The peptide was monomerized as described previously before use ([Liu et al., 2018]). Lyophilized peptide powder was dissolved in aqueous NaOH solution (2 mM), and the pH was adjusted to ∼11 by using 100 mM NaOH solution. The solution was sonicated for 1 h in an ice−water bath and then filtered through a 0.22 μm filter (Millipore) and kept on ice before use. The concentration of the peptide solution was determined by using the tyrosine UV absorbance at 280 nm (ε = 1280 M^−1 cm^−1).
The aggregation kinetics of Aβ40 in the absence and presence of APP (glyco)peptides was performed using ThT binding assay. The monomerized Aβ40 peptide solution was diluted to a final concentration of 10 µM in 50 mM phosphate buffer (pH 7.4) and 20 µM ThT dye. For the co-incubation assays with APP (glyco)peptides, APP stock solutions of 120 µM were added to the prepared Aβ40 for final (glyco) peptide concentrations of 10 µM or 50 µM and Aβ40 concentration of 10 µM in 50 mM phosphate buffer (pH 7.4) with 20 µM ThT dye. 100 µL of each prepared solution was run in triplicate of a 96-well microplate (Costar black, clear bottom). The plate was sealed with a microplate cover and loaded into a Gemini SpectraMax EM fluorescence plate reader (Molecular Devices, Sunnyvale, CA) and incubated at 37°C. The ThT fluorescence was measured from the bottom of the plate at 10 min intervals, with 5 s of shaking, and with an excitation and emission wavelengths of 440 and 480 nm, respectively. Error bars of triplicate samples are shown for the particular data points.
We adopted the widely used thioflavin T (ThT) assay ([Xue et al., 2017]) to investigate how O-glycosylation impacts the kinetics of fiber formation of Aβ40, a model peptide for studying the dynamics of protein aggregation. […] At the conditions used in this study, it has been shown that Aβ amyloidogenesis proceeds by a nucleation-dependent polymerization mechanism that involves key soluble oligomeric intermediates ([Du et al., 2011]; [Elbassal et al., 2017]). The half time (t 50) of the growth phase of the Aβ40 amyloidogenesis was approximately 8 h (Figure 2, Supplementary Material S33–S40), where t 50 is defined as the time at which the fluorescence intensity reaches the midpoint between the pre- and post-aggregation baselines.
4. Aggregation kinetic ThT fluorescence curves of APP (glyco)peptides 3-16 coincubated with
For the aggregation kinetic assay, APP (glyco)peptide stock solutions were added to the prepared
Aβ40, phosphate buffer and ThT solution for final APP (glyco)peptide concentrations of 10 µM and
50 µM. 100 µL of prepared solution was distributed into each well and carried out in triplicate at 37
°C. ThT fluorescence was measured in 10 minute intervals.
Figure S1b. APP665-680-S*, 4 coincubated with Aβ40
(also on this page, place not known: 15 Normalized Fluorescence Intensity (h) 20 Normalized Fluorescence Intensity (h))

For data set [2], the target named is T1, Aβ40. Briefly: AFM analysis of Aβ40 fibril morphology with APP (glyco)peptides. As to conditions: 24 h incubation with Aβ40, tapping mode. As to the method: AFM was employed to monitor the morphological changes of Aβ40 incubated in the absence and presence of tyrosine glycosylated (14 and 16) and nonglycosylated APP analogues (13 and 15). Aliquots (15 µL) of Aβ40 solutions were collected directly from the aggregation kinetics assay and spotted onto the surface of the freshly cleaved mica surface (5 mm × 5 mm) on solid support at room temperature. Before the measurement, the samples were covered and dried in a vacuum desiccator overnight. The AFM images were acquired in tapping mode with an area of 4 μm^2, using AFM workshop TT-2 (Hilton Head Island, SC) with MikroMash NSC 15/Al BS silicon cantilevers (MikroMash, Watsonville, CA). The AFM images were further visualized and analyzed using the Gwyddion software.

The conditions of data set [3]: analytical RP-HPLC; footnote c: reported earlier; ref Singh et al., 2021; cited from earlier work. From the text: TABLE 1 Characterization of APP (glyco)peptides 3–16 by analytical RP-HPLC and MALDI-MS ^a . | column: RP-HPLC / t R (min)
In data set [4] the target is T2, Recombinant human BACE-1 (rhBACE-1) (Homo sapiens, UniProt P56817).
T2 construct: purchased R&D Systems #ES004 and #931-AS, respectively (so in the source)
As to conditions: treatment with BACE-1 enzyme; footnote b: reported earlier; ref Singh et al., 2021; cited from earlier work. From the text:
TABLE 3 Proteolytic cleavage of APP (glyco)peptides 3–12 upon treatment with BACE-1 enzyme (KM∼D/NL∼D cleavage site) ^a . | column: BACE-1 activity / Recovered (%); BACE-1 activity / Cleaved (%) || Other key aspects affecting BACE-1 cleavage rates in the presence of the Swedish mutation were the length of the C-terminal Aβ fragment and the glycan position relative to the cleavage site. For example, 16 contains Aβ-(1–23) C-terminal fragment and is cleaved to a much lesser extent (42.4%) by BACE-1 than 11 that contains Aβ-(1–9) C-terminal fragment (98.1%). Moreover, the relative position of the GalNAc moiety on Thr^663 and Tyr^681 in 11 and 16, respectively, can also influence enzymatic activity. Even though 16 is cleaved to a lesser extent than 11 by BACE-1, the ∼3-fold increase in cleave ...

As to “IKTEEISEVNL∼DAEFRHDSGYEVHHQK∼LVFFAED [compound 15, Swedish-mutated nonglycosylated APP 661-694 peptide, reported in Singh et al., 2021]”, the “Δt50 (APP (glyco)peptide t50 - Aβ40 t50)” value on Aβ40 [1] ((glyco)peptide 50 µM) was 5.2 h. For the same substance, at Aβ40 [2] ((glyco)peptide 50 μM), the “AFM morphology of Aβ40 fibrils” value is “fibrilar morphology similar to that of Aβ40 alone”. Moreover, in data set [3], the “RP-HPLC t R” value was 18.2 min. In data set [4], the “BACE-1 activity, Cleaved (%)” value is on record as 13.1 ^b % and the “BACE-1 activity, Recovered (%)” value is 86.8 ^b %.
Consider “IKTEEISEVKM∼DAEFRHDSGY*EVHHQK∼VFFAED [compound 14, native APP 661-694 glycopeptide with O-GalNAc on Tyr^681, reported in Singh et al., 2021]”, for which the “Δt50 (APP (glyco)peptide t50 - Aβ40 t50)” value at Aβ40 [1] ((glyco)peptide 50 µM) came out at 12.1 h. Further, the “AFM morphology of Aβ40 fibrils” value at Aβ40 [2] ((glyco)peptide 50 μM) was “less fibrils formed, and the ones formed were shorter in size”. The “RP-HPLC t R” value in data set [3] was 17.1 min. In addition, in data set [4], the “BACE-1 activity, Cleaved (%)” value is reported as 0.0 ^b % and the “BACE-1 activity, Recovered (%)” value is reported as 100 ^b %.
Regarding “IKTEEISEVNL∼DAEFRHDSGY*EVHHQK∼LVFFAED [compound 16, Swedish-mutated APP 661-694 glycopeptide with O-GalNAc on Tyr^681, reported in Singh et al., 2021]”, the “Δt50 (APP (glyco)peptide t50 - Aβ40 t50)” value on Aβ40 [1] ((glyco)peptide 50 µM) worked out at 15.2 h. Also, the “AFM morphology of Aβ40 fibrils” value on Aβ40 [2] ((glyco)peptide 50 μM) was “thinly dispersed and less dense Aβ40 fibril”. Further, in data set [3], the “RP-HPLC t R” value is on record as 17.8 min. For the same substance, in data set [4], the “BACE-1 activity, Cleaved (%)” value is 42.4% and 42.4 ^b %; the “BACE-1 activity, Recovered (%)” value is 57.4 ^b %.
For “IKTEEISEVKM∼DAEFRHDSGYEVHHQK∼LVFFAED [compound 13, native nonglycosylated APP 661-694 peptide containing Aβ-(1–23), reported in Singh et al., 2021]”, the “Δt50 (APP (glyco)peptide t50 - Aβ40 t50)” value at Aβ40 [1] (peptide 25 µM) is listed as 7.1 h. The “ThT signal at higher concentration” value on Aβ40 [1] (peptide 50 µM with Aβ40 10 µM) is given as “complete saturation of the ThT signal”. Further, the “AFM morphology of Aβ40 fibrils” value on Aβ40 [2] (peptide 25 μM) was “lower density of Aβ40 fibrils”. For the same substance, the “RP-HPLC t R” value in data set [3] is listed as 17.6 min. In data set [4], the “BACE-1 activity, Cleaved (%)” value is on record as 0.0 ^b % and the “BACE-1 activity, Recovered (%)” value is on record as 100 ^b %.
